# Target: T1, endogenous Claspin of Xenopus egg extract (Xenopus, UniProt Q9DF50, phosphorylated in checkpoint-activated extract; sites not given)
# T1 construct: Native protein in interphase egg extract
# Test: pull-down from interphase egg extract on nickel agarose then glutathione agarose, SDS-PAGE and silver staining; the control beads carried His6-GST
# Protocol: Ni-IDA beads (10 µl) containing Xchk1-WT-GST-His6 protein (5 µg) were incubated for 100 min at 23° C. in 100 µl of interphase egg extract containing 3 µM tautomycin, 100 µg/ml cycloheximide, and either 50 µg/ml poly(dA)$70$ or 50 µg/ml poly(dA)$70$–poly(dT)$70$ in the presence or absence of 5 mM caffeine. The beads were isolated by centrifugation and washed four times in 10 mM Hepes-KOH (pH 7.5) containing 150 mM NaCl, 0.5% NP-40, 2.5 mM EGTA, and 20 mM β-glycerolphosphate. Bound proteins were eluted with 150 mM imidazole in the same buffer. The eluate was diluted to 500 µl and incubated with 10 µl Glutathione Sepharose 4 Fast Flow (Amersham Pharmacia Biotech) for 30 min at 4° C. The beads were washed three times in the same buffer and then subjected to SDS-PAGE. For protein sequencing, 30 ml of interphase egg extract and 1.5 mg of Xchk1-WT-GST-His6 protein were used to isolate Claspin. Proteins were eluted from glutathione agarose with 0.1% SDS, concentrated with a Microsep, 30K device (Filtron Technology), treated with dithiothreitol, alkylated, and subjected to SDS-PAGE. The gel was stained with SYPRO Red (Molecular Probes). Tryptic peptides from Claspin were separated on a Vydac C18 column and sequenced in the Caltech facility. […]
binder,measurement,value
"His6-GST (other, Control protein from pFastBacHT-GST, held on nickel agarose beads; also called control His6-GST protein; control His6-GST; not shown: vector-derived residues between the histidine tag and GST are not described) HHHHHHMSPILGYWKIKGLVQPTRLLLEYLEEKYEEHLYERDEGDKWRNKKFELGLEFPNLPYYIDGDVKLTQSMAIIRYIADKHNMLGGCPKERAEISMLEGAVLDIRYGVSRIAYSKDFETLKVDFLSKLPEMLKMFEDRLCHKTYLNGDHVTHPDFMLYDALDVVLYMDPMCLDAFPKLVCFKKRIEAIPQIDKYLKSSKYIAWPLQGWQATFGGGDHPPK",binding result,no binding

# — US7037678 (CALIFORNIA INSTITUTE OF TECHNOLOGY, dated 2006)
